{
  "sequences": {"note": "Sequences of proteins named here, by UniProt entry; tags and fusion partners are left off.", "UniProt P0DMS8, whole entry": "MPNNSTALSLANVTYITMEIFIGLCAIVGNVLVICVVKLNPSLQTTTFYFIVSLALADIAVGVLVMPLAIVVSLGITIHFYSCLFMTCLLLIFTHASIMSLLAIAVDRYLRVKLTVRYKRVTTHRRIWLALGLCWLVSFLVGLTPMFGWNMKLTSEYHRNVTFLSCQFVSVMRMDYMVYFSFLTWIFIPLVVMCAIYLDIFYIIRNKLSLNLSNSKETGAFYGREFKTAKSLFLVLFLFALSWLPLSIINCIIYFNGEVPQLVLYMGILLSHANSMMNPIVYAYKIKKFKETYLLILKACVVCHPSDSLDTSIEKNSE"},
  "source": "patent US20050101560A1",
  "about": "“Method of treating an individual with methyl 1-[N6-(3-iodobenzyl)-adenin-9-yl] beta-D-ibofuronamide” (CAN-FITE BIOPHARMA LTD., priority 2003, published 2005)",
  "origin": "cited, not measured here",
  "target": "A3 adenosine receptor (Homo sapiens, UniProt P0DMS8)",
  "details": "Jacobson et al., U.S. Pat. No. 5,773,423; cited from earlier work",
  "data": [
    {"smiles": "CNC(=O)[C@H]1O[C@@H](n2cnc3c(NCc4cccc(I)c4)ncnc32)[C@H](O)[C@@H]1O", "note": "[IB-MECA, methyl 1-[N6-(3-iodobenzyl)-adenin-9-yl]-β-D-ibofuronamide]", "values": [
      {"measurement": "receptor activity", "value": "selective A3 adenosine receptor agonist"}
    ]}
  ]
}
